Apparent affinities of Ab-14 variants for a coronavirus HR2 peptide

Values reported by Engelhart et al. 2022, doi:10.1038/s41597-022-01779-4 (FLAb copy).

All variants were tested on one target, the spike HR2 peptide PDVDLGDISGINAS (SARS-CoV-2).

Each scFv is VH, three GGGGS repeats, VL, as in the parent Ab-14, and differs from it in the CDRs of the light chain only.
VH: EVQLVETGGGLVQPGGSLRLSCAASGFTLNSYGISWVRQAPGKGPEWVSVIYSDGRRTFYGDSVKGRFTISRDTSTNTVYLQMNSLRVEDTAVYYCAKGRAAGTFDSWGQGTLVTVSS
VL: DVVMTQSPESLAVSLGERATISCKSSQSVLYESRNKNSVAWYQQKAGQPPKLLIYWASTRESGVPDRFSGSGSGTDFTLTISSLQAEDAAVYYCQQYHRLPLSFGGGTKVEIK

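Phage display of a naive human antibody library on the peptide gave the parent. In library AAYL50, one, two or three CDR residues were substituted; doubles and triples were drawn at random. AlphaSeq pools MATa yeast showing the antibodies with MATalpha yeast showing the peptide. Binding brings cells together so that they mate, and sequencing counts the barcode pairs among the diploids. Scores were corrected for input abundance and mapped to Kd with protein pairs of known affinity run in the same pool. The assay was run in three technical replicates.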

Variants are written as CDR1, CDR2 and CDR3 of the light chain (limits as in the source). Parent: KSSQSVLYESRNKNSVA, WASTRES, QQYHRLPLS. Values are log10 of the apparent Kd in nM; lower means stronger binding. Replicates are averaged; those with no signal do not enter the mean. An entry "n.d." has no value in the source: the pair was not observed among the diploids in that replicate. This suggests poor binding but is not conclusive. Three control strains display no target. For library AAYL50, 18% of the pairings with them gave a signal, with a median of 4.19 and one signal in twenty below 2.99, so weak values seen in few replicates may be background. For each scFv, signals with the empty controls are counted beside the result, with their mean in brackets. For reference, the parent read 0.65 as the reference entry and 1.68 as a member of this library.

CDR-L1 | CDR-L2 | CDR-L3 | log10 Kd, replicates | mean log10 Kd (nM) | control signals
KSSQSVLYESRNKNEVV | WASTRYS | QQYHRLPLS | n.d. n.d. n.d. | n.d. | 1 of 9 (3.27)
KSSQSVLYESRNKNSVA | CASTRES | SQYHCLPLS | n.d. 3.88 5.89 | 4.88 | 7 of 9 (4.28)
KSSQSVLYCGRNKNSVA | WASTRES | QQYHRLPLH | n.d. n.d. n.d. | n.d. | 2 of 9 (3.05)
KSSQPVLYESRNKNSVA | WASTREY | QQYLRLPLS | 2.25 2.03 2.50 | 2.26 | 4 of 9 (5.51)
KSSQSVLYESRYKNSVI | WASTRES | QQYHRLLLS | n.d. n.d. 3.55 | 3.55 | 0 of 9
RPSQSVLYESRNKNSVA | WASTRES | QQYHRLYLS | 4.06 n.d. 4.05 | 4.06 | 5 of 9 (3.95)
KSSQSVLYESMNLNSVA | WASSRES | QQYHRLPLS | 1.21 1.19 1.08 | 1.16 | 0 of 9
KSSQLVLYESRNLNSVA | WASTRES | EQYHRLPLS | 1.90 1.99 1.86 | 1.92 | 4 of 9 (3.70)
KSCQSVLYESRNENSVA | WASTREL | QQYHRLPLS | 2.25 1.68 2.24 | 2.06 | 0 of 9
KSSLSVLYESRNKNSVA | YASTRNS | QQYHRLPLS | 0.32 0.48 0.38 | 0.39 | 0 of 9
KSSQSVLYESRNKNSVA | WESMRES | QQYMRLPLS | 0.64 0.75 0.53 | 0.64 | 0 of 9
KSSQSVLYESRNLNSVA | WASTRES | QQEHRLPLS | n.d. n.d. n.d. | n.d. | 0 of 9
KSSQSQLYESRNKNSVI | WASTRES | QQEHRLPLS | n.d. 4.40 n.d. | 4.40 | 2 of 9 (4.32)
KSSQSVLYESRNKNSCA | WASTREH | QQYHRLPLR | 3.50 3.52 n.d. | 3.51 | 2 of 9 (4.77)
KSRQSVLYESRNKNSVA | QASTRES | QQYHWLPLS | 0.08 0.33 0.30 | 0.24 | 1 of 9 (3.57)
KSSQSVLYGSRNKGSVA | WASTRES | QQYHRLPSS | 1.14 1.33 1.30 | 1.26 | 2 of 9 (5.47)
KWSHSELYESRNKNSVA | WASTRES | QQYHRLPLS | 0.63 0.76 0.80 | 0.73 | 2 of 9 (3.69)
KSSQSVMYESMNKNSVA | WASTRES | QCYHRLPLS | 4.67 n.d. n.d. | 4.67 | 2 of 9 (4.34)
DSSQSVLYESCNKNSVK | WASTRES | QQYHRLPLS | n.d. n.d. n.d. | n.d. | 0 of 9
KSSQSVLYESRNCNSVA | KASWRES | QQYHRLPLS | 0.93 0.99 1.29 | 1.07 | 1 of 9 (3.77)
KSSQSVLYESRNKNSVF | WASTCES | QQYHRLMLS | n.d. n.d. n.d. | n.d. | 0 of 9
KSSQSVLYESNNKNSVA | WASTRES | QQYHRICLS | 0.19 0.56 0.54 | 0.43 | 2 of 9 (3.89)
KSSQSVLYESRNKNSVA | WASTRES | QQMHRRPVS | 5.09 n.d. n.d. | 5.09 | 2 of 9 (4.88)
KSSQSVLYESRNKTSVA | WAHTRED | QQYHRLPLS | 1.78 1.87 1.92 | 1.86 | 3 of 9 (3.86)
KRSQSVLYESRNKNSVA | WAETRES | QQYHRLTLS | 2.74 3.27 2.90 | 2.97 | 1 of 9 (4.45)
KSIQSFLYESRNKNSVA | WASTRES | NQYHRLPLS | 4.27 n.d. n.d. | 4.27 | 2 of 9 (4.03)
KSSQSVAYDSRNKNSVA | WAVTRES | QQYHRLPLS | 0.78 0.97 0.97 | 0.91 | 1 of 9 (3.93)
KSSKSVLYESRNKNSVA | WASTRES | QQYHRFWLS | 0.69 0.88 0.89 | 0.82 | 2 of 9 (5.08)
KSSQSVLYESDDKNSVA | WASTRES | QQYHRLPLG | 0.86 1.12 1.11 | 1.03 | 2 of 9 (3.90)
KSSQSVLYESDPMNSVA | WASTRES | QQYHRLPLS | 0.35 0.54 0.46 | 0.45 | 2 of 9 (4.20)
KWSQSVLYESREKNSVA | WAMTRES | QQYHRLPLS | 2.61 2.39 2.93 | 2.64 | 3 of 9 (4.19)
KSSQSVLYESRTKNSVA | WASTRES | QQTHRLPLS | n.d. n.d. n.d. | n.d. | 2 of 9 (2.82)
KSSQSVLYESRNKNSVA | WASTREM | QGYARLPLS | 0.71 0.92 0.76 | 0.80 | 3 of 9 (5.65)
KSSQSVLYESRNWVSVA | WASTNES | QQYHRLPLS | n.d. 5.24 5.24 | 5.24 | 2 of 9 (4.27)
KSSQSVLYESRNKNSVA | WASTRRS | QGYHRLPQS | n.d. n.d. n.d. | n.d. | 1 of 9 (3.30)
KSSTSVLYESRNKKWVA | WASTRES | QQYHRLPLS | n.d. n.d. n.d. | n.d. | 0 of 9
KSSQSVLYESINKNSVA | WASTRER | KQYHRLPLS | n.d. n.d. 3.51 | 3.51 | 2 of 9 (4.28)
KSSQSVLYESRNKNSVA | WASTREN | QQYQRLPYS | 1.09 1.04 1.22 | 1.12 | 1 of 9 (4.06)
KHSQSVLAESRNKNSVA | WTSTRES | QQYHRLPLS | 0.90 1.09 1.12 | 1.04 | 1 of 9 (3.63)
KCSQSVLYESVHKNSVA | WASTRES | QQYHRLPLS | 1.33 1.43 1.50 | 1.42 | 2 of 9 (4.73)
KSSQSVLYESRNKNSEA | WASTRES | QQYHRTPLD | n.d. n.d. n.d. | n.d. | 0 of 9
KSSQSMLYESRNKNSVA | WASTREE | HQYHRLPLS | n.d. n.d. n.d. | n.d. | 1 of 9 (2.45)
KSSQSVLYESRVKNSVA | WASTRES | QQTHRLMLS | 1.48 1.29 1.51 | 1.43 | 0 of 9
KSSQSQLYESRNKNSVA | VASTRES | QQYHRLPLS | 3.07 3.10 3.20 | 3.12 | 3 of 9 (4.26)
KSSVSVLLHSRNKNSVA | WASTRES | QQYHRLPLS | 1.09 1.04 1.17 | 1.10 | 2 of 9 (4.48)